Permeability data for macrocyclic peptides

Source: CycPeptMPDB (Li et al. 2023), which took these values from Kelly et al. 2021, doi:10.1021/jacs.0c06115.

PAMPA is the parallel artificial membrane permeability assay, which has no cells and reads passive diffusion. Values are log10 P with P in cm/s, so -5 is more permeable than -7.

CC(=O)N1CCC[C@@H]1C(=O)N(C)[C@@H](CC(C)C)C(=O)N[C@@H]1C(=O)N(C)[C@H](CC(C)C)C(=O)N(C)[C@@H](CC(C)C)C(=O)N(C)[C@@H](CC(C)C)C(=O)N(C)[C@H](C)C(=O)N[C@@H](CC(C)C)C(=O)N2CCC[C@H]2C(=O)O[C@@H]1C has PAMPA -5.32 (log10 cm/s).
CC(=O)N1CCC[C@H]1C(=O)N(C)[C@H](CC(C)C)C(=O)N[C@@H]1C(=O)N[C@@H](CC(C)C)C(=O)N[C@@H](CC(C)C)C(=O)N(C)[C@H](CC(C)C)C(=O)N(C)[C@@H](C)C(=O)N[C@@H](CC(C)C)C(=O)N2CCC[C@H]2C(=O)O[C@@H]1C has PAMPA -5.65 (log10 cm/s).
CC(=O)N1CCC[C@H]1C(=O)N[C@@H]1C(=O)N(C)[C@H](CC(C)C)C(=O)N[C@H](CC(C)C)C(=O)N[C@@H](CC(C)C)C(=O)N(C)[C@H](CC(C)C)C(=O)N[C@H](C)C(=O)N[C@@H](CC(C)C)C(=O)N2CCC[C@@H]2C(=O)O[C@@H]1C has PAMPA -5.53 (log10 cm/s).
CC(=O)N1CCC[C@H]1C(=O)N(C)[C@H](CC(C)C)C(=O)N[C@@H]1C(=O)N[C@H](CC(C)C)C(=O)N[C@H](CC(C)C)C(=O)N[C@H](CC(C)C)C(=O)N[C@@H](C)C(=O)N[C@@H](CC(C)C)C(=O)N2CCC[C@H]2C(=O)O[C@@H]1C has PAMPA -6.62 (log10 cm/s).
CC(=O)N1CCC[C@@H]1C(=O)N(C)[C@@H](CC(C)C)C(=O)N[C@@H]1C(=O)N(C)[C@@H](CC(C)C)C(=O)N[C@H](CC(C)C)C(=O)N[C@@H](CC(C)C)C(=O)N[C@@H](C)C(=O)N[C@@H](CC(C)C)C(=O)N2CCC[C@H]2C(=O)O[C@@H]1C has PAMPA -6.78 (log10 cm/s).
CC(=O)N1CCC[C@@H]1C(=O)N(C)[C@@H](CC(C)C)C(=O)N[C@@H]1C(=O)N[C@H](CC(C)C)C(=O)N[C@@H](CC(C)C)C(=O)N(C)[C@H](CC(C)C)C(=O)N[C@@H](C)C(=O)N[C@H](CC(C)C)C(=O)N2CCC[C@H]2C(=O)O[C@@H]1C has PAMPA -5.76 (log10 cm/s).
CC(=O)N1CCC[C@H]1C(=O)N(C)[C@H](CC(C)C)C(=O)N[C@@H]1C(=O)N[C@@H](CC(C)C)C(=O)N[C@H](CC(C)C)C(=O)N[C@H](CC(C)C)C(=O)N(C)[C@H](C)C(=O)N[C@H](CC(C)C)C(=O)N2CCC[C@H]2C(=O)O[C@@H]1C has PAMPA -6.41 (log10 cm/s).
CC(=O)N1CCC[C@@H]1C(=O)N(C)[C@H](CC(C)C)C(=O)N[C@@H]1C(=O)N[C@@H](CC(C)C)C(=O)N[C@@H](CC(C)C)C(=O)N(C)[C@@H](CC(C)C)C(=O)N(C)[C@@H](C)C(=O)N[C@H](CC(C)C)C(=O)N2CCC[C@H]2C(=O)O[C@@H]1C has PAMPA -6.87 (log10 cm/s).
CC(=O)N1CCC[C@H]1C(=O)N(C)[C@@H](CC(C)C)C(=O)N[C@@H]1C(=O)N[C@@H](CC(C)C)C(=O)N[C@H](CC(C)C)C(=O)N[C@H](CC(C)C)C(=O)N(C)[C@H](C)C(=O)N[C@H](CC(C)C)C(=O)N2CCC[C@H]2C(=O)O[C@@H]1C has PAMPA -6.90 (log10 cm/s).
CC(=O)N1CCC[C@H]1C(=O)N(C)[C@@H](CC(C)C)C(=O)N[C@@H]1C(=O)N(C)[C@@H](CC(C)C)C(=O)N[C@@H](CC(C)C)C(=O)N[C@H](CC(C)C)C(=O)N(C)[C@H](C)C(=O)N[C@@H](CC(C)C)C(=O)N2CCC[C@H]2C(=O)O[C@@H]1C has PAMPA -5.27 (log10 cm/s).
CC(=O)N1CCC[C@H]1C(=O)N(C)[C@@H](CC(C)C)C(=O)N[C@@H]1C(=O)N(C)[C@H](CC(C)C)C(=O)N[C@H](CC(C)C)C(=O)N(C)[C@H](CC(C)C)C(=O)N[C@@H](C)C(=O)N[C@@H](CC(C)C)C(=O)N2CCC[C@H]2C(=O)O[C@@H]1C has PAMPA -5.99 (log10 cm/s).
CC(=O)N1CCC[C@@H]1C(=O)N(C)[C@H](CC(C)C)C(=O)N[C@@H]1C(=O)N[C@H](CC(C)C)C(=O)N(C)[C@@H](CC(C)C)C(=O)N(C)[C@H](CC(C)C)C(=O)N(C)[C@H](C)C(=O)N[C@H](CC(C)C)C(=O)N2CCC[C@H]2C(=O)O[C@@H]1C has PAMPA -5.44 (log10 cm/s).
CC(=O)N1CCC[C@@H]1C(=O)N(C)[C@@H](CC(C)C)C(=O)N[C@@H]1C(=O)N(C)[C@@H](CC(C)C)C(=O)N[C@H](CC(C)C)C(=O)N(C)[C@@H](CC(C)C)C(=O)N(C)[C@@H](C)C(=O)N[C@@H](CC(C)C)C(=O)N2CCC[C@@H]2C(=O)O[C@@H]1C has PAMPA -5.66 (log10 cm/s).
CC(=O)N[C@@H]1C(=O)N2CCC[C@H]2C(=O)N(C)[C@H](CC(C)C)C(=O)N[C@H](CC(C)C)C(=O)N[C@H](CC(C)C)C(=O)N[C@@H](CC(C)C)C(=O)N[C@H](C)C(=O)N[C@@H](CC(C)C)C(=O)N2CCC[C@@H]2C(=O)O[C@@H]1C has PAMPA -6.83 (log10 cm/s).
CC(=O)N1CCC[C@@H]1C(=O)N(C)[C@@H](CC(C)C)C(=O)N[C@@H]1C(=O)N[C@H](CC(C)C)C(=O)N(C)[C@H](CC(C)C)C(=O)N(C)[C@@H](CC(C)C)C(=O)N(C)[C@H](C)C(=O)N[C@@H](CC(C)C)C(=O)N2CCC[C@H]2C(=O)O[C@@H]1C has PAMPA -5.30 (log10 cm/s).
CC(=O)N1CCC[C@H]1C(=O)N(C)[C@@H](CC(C)C)C(=O)N[C@@H]1C(=O)N[C@H](CC(C)C)C(=O)N[C@@H](CC(C)C)C(=O)N(C)[C@@H](CC(C)C)C(=O)N[C@@H](C)C(=O)N[C@@H](CC(C)C)C(=O)N2CCC[C@@H]2C(=O)O[C@@H]1C has PAMPA -5.19 (log10 cm/s).
CC(=O)N1CCC[C@@H]1C(=O)N(C)[C@@H](CC(C)C)C(=O)N[C@@H]1C(=O)N[C@H](CC(C)C)C(=O)N(C)[C@H](CC(C)C)C(=O)N(C)[C@H](CC(C)C)C(=O)N[C@H](C)C(=O)N[C@@H](CC(C)C)C(=O)N2CCC[C@@H]2C(=O)O[C@@H]1C has PAMPA -5.56 (log10 cm/s).
CC(=O)N1CCC[C@H]1C(=O)N(C)[C@@H](CC(C)C)C(=O)N[C@@H]1C(=O)N[C@H](CC(C)C)C(=O)N[C@@H](CC(C)C)C(=O)N(C)[C@H](CC(C)C)C(=O)N(C)[C@@H](C)C(=O)N[C@@H](CC(C)C)C(=O)N2CCC[C@H]2C(=O)O[C@@H]1C has PAMPA -5.39 (log10 cm/s).
CC(=O)N1CCC[C@@H]1C(=O)N(C)[C@@H](CC(C)C)C(=O)N[C@@H]1C(=O)N[C@@H](CC(C)C)C(=O)N[C@@H](CC(C)C)C(=O)N(C)[C@H](CC(C)C)C(=O)N[C@@H](C)C(=O)N[C@H](CC(C)C)C(=O)N2CCC[C@@H]2C(=O)O[C@@H]1C has PAMPA -6.39 (log10 cm/s).
CC(=O)N[C@@H]1C(=O)N2CCC[C@H]2C(=O)N(C)[C@H](CC(C)C)C(=O)N[C@H](CC(C)C)C(=O)N[C@H](CC(C)C)C(=O)N(C)[C@@H](CC(C)C)C(=O)N(C)[C@H](C)C(=O)N[C@@H](CC(C)C)C(=O)N2CCC[C@@H]2C(=O)O[C@@H]1C has PAMPA -5.65 (log10 cm/s).

The 2 lowest values of PAMPA among the entries above:

CC(=O)N1CCC[C@H]1C(=O)N(C)[C@@H](CC(C)C)C(=O)N[C@@H]1C(=O)N[C@@H](CC(C)C)C(=O)N[C@H](CC(C)C)C(=O)N[C@H](CC(C)C)C(=O)N(C)[C@H](C)C(=O)N[C@H](CC(C)C)C(=O)N2CCC[C@H]2C(=O)O[C@@H]1C has PAMPA -6.90 (log10 cm/s).
CC(=O)N1CCC[C@@H]1C(=O)N(C)[C@H](CC(C)C)C(=O)N[C@@H]1C(=O)N[C@@H](CC(C)C)C(=O)N[C@@H](CC(C)C)C(=O)N(C)[C@@H](CC(C)C)C(=O)N(C)[C@@H](C)C(=O)N[C@H](CC(C)C)C(=O)N2CCC[C@H]2C(=O)O[C@@H]1C has PAMPA -6.87 (log10 cm/s).

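Lipid, pH, incubation time, direction and concentration are not recorded in the data file. The list need not hold all peptides of the study. Entries at the database's floor value (log10 P of -10) are not listed.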